# The entries are a selection whose mix differs from that of the whole data set. Activity calls are given as the source filed them.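 How the source made its calls: active means mean inhibition of at least 70% across replicates, with every replicate also reaching that level; inconclusive means mean inhibition reaches 70% but some replicates fall short; inactive means mean inhibition below 70%.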
# By UniProt entry, the sequences of proteins in these tests, tags left out.
# UniProt P26447, whole entry: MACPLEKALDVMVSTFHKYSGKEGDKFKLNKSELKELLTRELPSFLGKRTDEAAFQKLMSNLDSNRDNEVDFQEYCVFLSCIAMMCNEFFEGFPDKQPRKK
# Biological target: Protein S100-A4 (Homo sapiens) (UniProt P26447)
# Experiment: inhibitors of S100A4-myosin IIA peptide binding, primary screen, biochemical, fluorescence polarization, TAMRA-MyoIIA peptide (AID 652163)
# Conditions: at 10.7 µM, stronger effect = higher value
# Summary of the method: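 Assay system: human S100A4 monomer with TAMRA-labelled myosin IIA peptide / Buffer or medium: Calcium-containing HEPES buffer, pH 7.2 / Reagent: TAMRA-labelled myosin IIA heavy-chain peptide probe, 5 nM / Compound: one dose per compound / Timing: polarization read 5 min after assay mix addition, stable 5–60 min / Benchmarks: neutral control DMSO, positive control TFP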
row,SMILES,inhibition
1,O=[N+]([O-])c1cc([N+](=O)[O-])c(-c2cnn(-c3ccccc3)c2)c([N+](=O)[O-])c1,inactive: -2.32%
2,O=P1(N(CCCl)CCCl)Nc2ccccc2N1,inactive: -14.2%

# From PubChem BioAssay AID652163 (Broad Institute, 2013)
